Measured values reported in ChEMBL document CHEMBL1138973, “Opiate receptor binding properties of morphine-, dihydromorphine-, and codeine 6-O-sulfate ester congeners” (Bioorg Med Chem Lett, 2006).

Amino acid sequences for entries named in this document (tags omitted). A change or cut given only in a name is not applied to a line headed by its entry.
UniProt P97266, whole entry, looked up: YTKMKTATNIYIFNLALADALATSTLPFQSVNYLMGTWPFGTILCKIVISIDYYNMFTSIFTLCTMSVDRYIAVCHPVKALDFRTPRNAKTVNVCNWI
UniProt P41144: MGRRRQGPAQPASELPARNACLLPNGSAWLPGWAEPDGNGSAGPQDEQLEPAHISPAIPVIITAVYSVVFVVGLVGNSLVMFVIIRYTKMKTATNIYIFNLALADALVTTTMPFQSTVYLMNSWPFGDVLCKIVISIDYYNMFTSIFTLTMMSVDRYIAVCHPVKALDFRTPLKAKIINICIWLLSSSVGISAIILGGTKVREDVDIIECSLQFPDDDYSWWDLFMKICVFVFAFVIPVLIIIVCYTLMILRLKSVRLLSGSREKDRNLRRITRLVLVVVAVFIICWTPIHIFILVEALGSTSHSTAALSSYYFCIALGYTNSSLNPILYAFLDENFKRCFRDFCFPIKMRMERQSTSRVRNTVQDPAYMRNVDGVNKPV

What was measured:
[1] = biological target: Mu-type opioid receptor (Cavia porcellus, UniProt P97266)
[2] = biological target: Kappa-type opioid receptor (Cavia porcellus, UniProt P41144)

Compound: CN(C(=O)Cc1ccccc1)[C@H]1CC[C@@]2(CCCO2)C[C@@H]1N1CCCC1
- Ki [1]: 692 nM
- Ki [2]: 0.7 nM
